Data as given in the Human Domainome abundance scans (Beltran et al. 2025).
± gives the uncertainty stated by the source.

B1: Tyrosine-protein kinase ABL1, residues 64 to 120; numbered along this chain, P00519 (parent)
chain: NLFVALYDFVASGDNTLSITKGEKLRVLGYNHNGEWCEAQTKNGQGWVPSNYITPVN

Variants of: B1
Experiment: abundance fitness (aPCA) (normalised: wild type 0, dead -1); higher = more abundant; growth selection in yeast, the domain comes from the species named
Details: Homo sapiens

In order of falling abundance fitness:
1. NLFVAIYDFVASGDNTLSITKGEKLRVLGYNHNGEWCEAQTKNGQGWVPSNYITPVN  0.359 ± 0.14
2. NLFVPLYDFVASGDNTLSITKGEKLRVLGYNHNGEWCEAQTKNGQGWVPSNYITPVN  0.295 ± 0.18
3. NLFVALEDFVASGDNTLSITKGEKLRVLGYNHNGEWCEAQTKNGQGWVPSNYITPVN  0.159 ± 0.096
4. NLFIALYDFVASGDNTLSITKGEKLRVLGYNHNGEWCEAQTKNGQGWVPSNYITPVN  0.105 ± 0.081
5. NLFKALYDFVASGDNTLSITKGEKLRVLGYNHNGEWCEAQTKNGQGWVPSNYITPVN  0.048 ± 0.1
6. NLFVATYDFVASGDNTLSITKGEKLRVLGYNHNGEWCEAQTKNGQGWVPSNYITPVN  0.043 ± 0.11
7. NLFVSLYDFVASGDNTLSITKGEKLRVLGYNHNGEWCEAQTKNGQGWVPSNYITPVN  0.028 ± 0.076
8. NLFVAQYDFVASGDNTLSITKGEKLRVLGYNHNGEWCEAQTKNGQGWVPSNYITPVN  0.028 ± 0.06
9. NLFVCLYDFVASGDNTLSITKGEKLRVLGYNHNGEWCEAQTKNGQGWVPSNYITPVN  0.021 ± 0.079
10. NLFVAAYDFVASGDNTLSITKGEKLRVLGYNHNGEWCEAQTKNGQGWVPSNYITPVN  0.02 ± 0.065
11. NLFVMLYDFVASGDNTLSITKGEKLRVLGYNHNGEWCEAQTKNGQGWVPSNYITPVN  0.013 ± 0.091
12. NLFVAEYDFVASGDNTLSITKGEKLRVLGYNHNGEWCEAQTKNGQGWVPSNYITPVN  0.013 ± 0.072
13. NLFSALYDFVASGDNTLSITKGEKLRVLGYNHNGEWCEAQTKNGQGWVPSNYITPVN  0.011 ± 0.097
14. NLFVARYDFVASGDNTLSITKGEKLRVLGYNHNGEWCEAQTKNGQGWVPSNYITPVN  -0.004 ± 0.07
15. NLFVADYDFVASGDNTLSITKGEKLRVLGYNHNGEWCEAQTKNGQGWVPSNYITPVN  -0.035 ± 0.15
16. NLFVALADFVASGDNTLSITKGEKLRVLGYNHNGEWCEAQTKNGQGWVPSNYITPVN  -0.039 ± 0.1
17. NLFVALCDFVASGDNTLSITKGEKLRVLGYNHNGEWCEAQTKNGQGWVPSNYITPVN  -0.045 ± 0.12
18. NLFVAVYDFVASGDNTLSITKGEKLRVLGYNHNGEWCEAQTKNGQGWVPSNYITPVN  -0.051 ± 0.058
19. NLFVAMYDFVASGDNTLSITKGEKLRVLGYNHNGEWCEAQTKNGQGWVPSNYITPVN  -0.056 ± 0.13
20. NLFVAGYDFVASGDNTLSITKGEKLRVLGYNHNGEWCEAQTKNGQGWVPSNYITPVN  -0.086 ± 0.083
21. NLFVAKYDFVASGDNTLSITKGEKLRVLGYNHNGEWCEAQTKNGQGWVPSNYITPVN  -0.096 ± 0.12
22. NLFRALYDFVASGDNTLSITKGEKLRVLGYNHNGEWCEAQTKNGQGWVPSNYITPVN  -0.108 ± 0.072
23. NLFVALDDFVASGDNTLSITKGEKLRVLGYNHNGEWCEAQTKNGQGWVPSNYITPVN  -0.109 ± 0.25
24. NLFQALYDFVASGDNTLSITKGEKLRVLGYNHNGEWCEAQTKNGQGWVPSNYITPVN  -0.111 ± 0.14
25. NLFVASYDFVASGDNTLSITKGEKLRVLGYNHNGEWCEAQTKNGQGWVPSNYITPVN  -0.135 ± 0.077
26. NLFVAHYDFVASGDNTLSITKGEKLRVLGYNHNGEWCEAQTKNGQGWVPSNYITPVN  -0.167 ± 0.2
27. NLFHALYDFVASGDNTLSITKGEKLRVLGYNHNGEWCEAQTKNGQGWVPSNYITPVN  -0.18 ± 0.2
28. NLFLALYDFVASGDNTLSITKGEKLRVLGYNHNGEWCEAQTKNGQGWVPSNYITPVN  -0.185 ± 0.087
29. NLFVVLYDFVASGDNTLSITKGEKLRVLGYNHNGEWCEAQTKNGQGWVPSNYITPVN  -0.212 ± 0.091
30. NLFYALYDFVASGDNTLSITKGEKLRVLGYNHNGEWCEAQTKNGQGWVPSNYITPVN  -0.239 ± 0.18
31. NLFVGLYDFVASGDNTLSITKGEKLRVLGYNHNGEWCEAQTKNGQGWVPSNYITPVN  -0.27 ± 0.09
32. NLFFALYDFVASGDNTLSITKGEKLRVLGYNHNGEWCEAQTKNGQGWVPSNYITPVN  -0.283 ± 0.16
33. NLFWALYDFVASGDNTLSITKGEKLRVLGYNHNGEWCEAQTKNGQGWVPSNYITPVN  -0.311 ± 0.097
34. NLFVAFYDFVASGDNTLSITKGEKLRVLGYNHNGEWCEAQTKNGQGWVPSNYITPVN  -0.324 ± 0.2
35. NLFNALYDFVASGDNTLSITKGEKLRVLGYNHNGEWCEAQTKNGQGWVPSNYITPVN  -0.344 ± 0.22
36. NLFVTLYDFVASGDNTLSITKGEKLRVLGYNHNGEWCEAQTKNGQGWVPSNYITPVN  -0.469 ± 0.18
37. NLFVAYYDFVASGDNTLSITKGEKLRVLGYNHNGEWCEAQTKNGQGWVPSNYITPVN  -0.576 ± 0.15
38. NLFVACYDFVASGDNTLSITKGEKLRVLGYNHNGEWCEAQTKNGQGWVPSNYITPVN  -0.592 ± 0.24
39. NLFGALYDFVASGDNTLSITKGEKLRVLGYNHNGEWCEAQTKNGQGWVPSNYITPVN  -0.663 ± 0.11
40. NLFVWLYDFVASGDNTLSITKGEKLRVLGYNHNGEWCEAQTKNGQGWVPSNYITPVN  -0.717 ± 0.28
41. NLFVILYDFVASGDNTLSITKGEKLRVLGYNHNGEWCEAQTKNGQGWVPSNYITPVN  -0.812 ± 0.43
42. NLFVRLYDFVASGDNTLSITKGEKLRVLGYNHNGEWCEAQTKNGQGWVPSNYITPVN  -0.877 ± 0.12
43. NLFVLLYDFVASGDNTLSITKGEKLRVLGYNHNGEWCEAQTKNGQGWVPSNYITPVN  -0.917 ± 0.21
44. NLFVAPYDFVASGDNTLSITKGEKLRVLGYNHNGEWCEAQTKNGQGWVPSNYITPVN  -0.94 ± 0.27
45. NLFPALYDFVASGDNTLSITKGEKLRVLGYNHNGEWCEAQTKNGQGWVPSNYITPVN  -0.99 ± 0.14
46. NLFVELYDFVASGDNTLSITKGEKLRVLGYNHNGEWCEAQTKNGQGWVPSNYITPVN  -1.07 ± 0.21
47. NLFVHLYDFVASGDNTLSITKGEKLRVLGYNHNGEWCEAQTKNGQGWVPSNYITPVN  -1.1 ± 0.15
